From USRE32311E

Experiment: toxicity, LD50 in mice
Format: in vivo
Details: administered intravenously

Compound | LD50 in Mice [mg/kg]
CCCCCCCCCCCCC(=O)N[C@@H](Cc1ccccc1)C(=O)N[C@@H](Cc1c[nH]c2ccccc12)C(=O)N[C@H](CC(N)=O)C(=O)N[C@@H](CC(=O)O)C(=O)N[C@@H]1C(=O)NCC(=O)N[C@@H](CCCN)C(=O)N[C@@H](CC(=O)O)C(=O)N[C@H](C)C(=O)N[C@@H](CC(=O)O)C(=O)NCC(=O)N[C@H](CO)C(=O)N[C@@H]([C@H](C)CC(=O)O)C(=O)N[C@@H](CC(=O)c2ccccc2N)C(=O)O[C@@H]1C [Compound 21] | 225
CCCCCCCCCCC(=O)N[C@@H](Cc1ccccc1)C(=O)NCCC[C@@H]1NC(=O)CNC(=O)[C@@H](NC(=O)[C@H](CC(=O)O)NC(=O)[C@@H](CC(N)=O)NC(=O)[C@@H](N)Cc2c[nH]c3ccccc23)[C@@H](C)OC(=O)[C@H](CC(=O)c2ccccc2N)NC(=O)[C@H]([C@H](C)CC(=O)O)NC(=O)[C@@H](CO)NC(=O)CNC(=O)[C@H](CC(=O)O)NC(=O)[C@@H](C)NC(=O)[C@H](CC(=O)O)NC1=O [Compound 26] | 225
